The structures appear in SMILES notation. The list shows a part of the results, in another mix than the full data. Activity calls are given as the source filed them.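 Rule for the calls: active = plate z-score of nuclear minus cytoplasmic receptor signal below a set negative limit, without overly bright fluorescence or cell loss (cut at about -3.5 in these data, passing the limit was not always enough); inactive = the rest, inconclusive results apart.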

These results are taken from PubChem BioAssay AID1381 (University of Pittsburgh Molecular Library Screening Center, 2008).

This experiment can be described thus: inhibitors of GR-EGFP nuclear translocation, primary screen, dynein cargo transport inhibitor project, imaging, high-content, 3617.4 mouse cells (AID 1381). The settings on record: at 20 µM, active compounds read low, stimulated with dexamethasone, 1 µM.
As to `Cc1c2non([O-])c-2c(C)[n+](=O)[n+]1[O-]`, the z-score was active: -3.59. To `O=c1c2cc([N+](=O)[O-])ccc2[nH]c2c([N+](=O)[O-])cc([N+](=O)[O-])cc12` belongs active: -3.53.
